In patent publication US10119168B2, “Methods for the treatment of kidney fibrosis” (priority 2014, dated 2018):

Tested on: mouse liver
Conditions: in vivo
Text: Fibrosis is a universal pathological finding for chronic diseases in any organ(14) and it would be useful to identify biomarkers of fibrosis that are specific for an organ or be able to indicate their origin.
Animals were housed in an Association for Assessment and Accreditation of Laboratory Animal Care International-accredited facility at Michigan State University and all procedures were approved by the Michigan State University Institutional Animal Care and Use Committee.
Formalin fixed, paraffin embedded kidney sections were Masson Trichrome's stained and evaluated by a renal pathologist under a light microscope in blinded fashion relative to sample group. Percent area of fibrosis relative to the total section area was evaluated. […]
Total RNA was extracted from frozen kidney tissue using TRIzol reagent (Invitrogen). Following RNA concentration measurement by NanoDrop spectrophotometer (Thermo Fischer Scientific), 1 μg RNA was used for cDNA preparation using QuantiTect Reverse Transcription Kit from Qiagen (Valencia, Calif.). qRT-PCR using QuantiFast SYBR Green PCR Kit (Qiagen) was performed in 384-well plates on an Applied Biosystems 7900HT Fast Real-Time PCR System instrument with the following temperature profile: 3 min enzyme activation at 95° C. followed by 40 cycles of 95° C. for 10 s, and 55° C. for 30 s. […]

S=C=Nc1cccc2ccccc12 [ANIT, α-naphthylisothiocyanate]
peribiliary fibrosis (Picrosirius red staining): significantly increased peribiliary fibrosis
